# Data taken from PubChem BioAssay AID1090 (ChemBank, 2008).
# The entries are a selection whose mix differs from that of the whole data set. The source made the active and inactive calls.
# Assay: fission yeast growth modulation, primary screen, strain 972, OD600, 24 h, no modulator (AID 1090);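 further: basal condition with compound alone and no growth modifier present; test concentration not given here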
# Conditions: S. pombe 972 growth, higher = more signal, called active from +8 up or from −8 down
row,SMILES,z-score
1,COP(=O)(/N=C1/CC(CCCO)=CC(C2CC2)N1Cc1cccc(OC(F)(F)F)c1)OC (stereo not given),inactive: -5.45
2,O=P(/N=C1/CC(CCCO)=CC(C2CC2)N1Cc1cc2c(cc1Br)OCO2)(Oc1ccccc1)Oc1ccccc1 (stereo not given),inactive: -1.89
3,CN1/C(=N\P(=O)(Oc2ccccc2)Oc2ccccc2)CC(CCCO)=CC1c1cccs1 (stereo not given),inactive: -0.669
4,COP(=O)(/N=C1/CC(CCCO)=CC(C2CC2)N1Cc1cc2c(cc1Br)OCO2)OC (stereo not given),inactive: -1.8
5,O=P(/N=C1/CC(CCCO)=CC(C2CC2)N1Cc1cccc(OC(F)(F)F)c1)(Oc1ccccc1)Oc1ccccc1 (stereo not given),inactive: -3.04
6,CC1C=C(CCCO)C/C(=N/P(=O)(Oc2ccccc2)Oc2ccccc2)N1Cc1cccc(OC(F)(F)F)c1 (stereo not given),inactive: -2.67
7,O=P(/N=C1/CC(CCCO)=CC(c2cccs2)N1Cc1cccc(OC(F)(F)F)c1)(Oc1ccccc1)Oc1ccccc1 (stereo not given),active: -11.8
8,CN1/C(=N\P(=O)(Oc2ccccc2)Oc2ccccc2)CC(c2ccc(CO)cc2)=CC1C1CC1 (stereo not given),inactive: -2.87
9,COP(=O)(/N=C1/CC(CCCO)=CC(c2ccc(CN3CCCC3)cc2)N1Cc1cc2c(cc1Br)OCO2)OC (stereo not given),inactive: -2.36
10,O=P(/N=C1/CC(CCCO)=CC(c2ccc(CN3CCCC3)cc2)N1Cc1cc2c(cc1Br)OCO2)(Oc1ccccc1)Oc1ccccc1 (stereo not given),inactive: -2.71
11,CN1/C(=N\P(=O)(Oc2ccccc2)Oc2ccccc2)CC(CCCO)=CC1c1ccc(CN2CCCC2)cc1 (stereo not given),inactive: -0.224
12,O=P(/N=C1/CC(c2ccc(CO)cc2)=CC(c2cccs2)N1Cc1cccc(OC(F)(F)F)c1)(Oc1ccccc1)Oc1ccccc1 (stereo not given),inactive: -7.78
13,COP(=O)(/N=C1/CC(c2ccc(CO)cc2)=CC(c2cccs2)N1C)OC (stereo not given),inactive: -3.53
14,O=P(/N=C1/CC(c2ccc(CO)cc2)=CC(C2CC2)N1Cc1cc2c(cc1Br)OCO2)(Oc1ccccc1)Oc1ccccc1 (stereo not given),inactive: -4.89
15,COP(=O)(/N=C1/CC(c2ccc(CO)cc2)=CC(C2CC2)N1Cc1sc2ccccc2c1Cl)OC (stereo not given),active: -9.01
16,CN1/C(=N\P(=O)(Oc2ccccc2)Oc2ccccc2)CC(c2ccc(CO)cc2)=CC1c1cccs1 (stereo not given),inactive: -3.95
17,O=P(/N=C1/CC(CCCO)=CC(c2cccs2)N1Cc1cc2c(cc1Br)OCO2)(Oc1ccccc1)Oc1ccccc1 (stereo not given),inactive: -3.01
18,COP(=O)(/N=C1/CC(CCCO)=CC(c2ccc(CN3CCCC3)cc2)N1Cc1cccc(OC(F)(F)F)c1)OC (stereo not given),inactive: -5.84
19,COP(=O)(/N=C1/CC(CCCO)=CC(c2ccc(CN3CCCC3)cc2)N1C)OC (stereo not given),inactive: -1.16
20,COP(=O)(/N=C1/CC(CCCO)=CC(C2CC2)N1C)OC (stereo not given),inactive: 0.25
21,COP(=O)(/N=C1/CC(CCCO)=CC(c2cccs2)N1C)OC (stereo not given),inactive: -1.87
22,COP(=O)(/N=C1/CC(c2ccc(CO)cc2)=CC(C2CC2)N1C)OC (stereo not given),inactive: -1.9
23,COP(=O)(/N=C1/CC(CCCO)=CC(C2CC2)N1Cc1sc2ccccc2c1Cl)OC (stereo not given),active: -9.1
24,COP(=O)(/N=C1/CC(CCCO)=CC(C)N1Cc1cccc(OC(F)(F)F)c1)OC (stereo not given),inactive: -2.66
25,COP(=O)(/N=C1/CC(CCCO)=CC(c2ccc(CN3CCCC3)cc2)N1Cc1sc2ccccc2c1Cl)OC (stereo not given),inactive: -4.31
26,O=P(/N=C1/CC(CCCO)=CC(C2CC2)N1Cc1sc2ccccc2c1Cl)(Oc1ccccc1)Oc1ccccc1 (stereo not given),inactive: -4.66
27,COP(=O)(/N=C1/CC(c2ccc(CO)cc2)=CC(C2CC2)N1Cc1cc2c(cc1Br)OCO2)OC (stereo not given),inactive: -5.06
28,O=P(/N=C1/CC(c2ccc(CO)cc2)=CC(C2CC2)N1Cc1sc2ccccc2c1Cl)(Oc1ccccc1)Oc1ccccc1 (stereo not given),inactive: -5.1
29,CN1/C(=N\P(=O)(Oc2ccccc2)Oc2ccccc2)CC(CCCO)=CC1C1CC1 (stereo not given),inactive: 0.181
30,O=P(/N=C1/CC(CCCO)=CC(c2ccc(CN3CCCC3)cc2)N1Cc1sc2ccccc2c1Cl)(Oc1ccccc1)Oc1ccccc1 (stereo not given),active: -11.3
